This note sets out measurements from US6693132B2, “Methods for using alkanoyloxymethyl esters” (Beacon Laboratories, Inc., priority 2000, dated 2004).

This experiment has as its target histone deacetylase isolated from rat liver. Description: Histone deacetylase inhibition assay with fluorescent substrate MAL, HPLC determination. In kind it is biochemical. The note with it: 37° C. 90 minutes, IC50 from five dilutions, read-out: HDAC.

As for `CC(/C=C/C(=O)NO)=C\[C@@H](C)C(=O)c1ccc(N(C)C)cc1` [trichostatin], the IC50 turned out to be 30 nM.
